{"sequences": {"note": "The chains behind the UniProt entries cited, without tags or fusion partners.", "UniProt P08659, whole entry": "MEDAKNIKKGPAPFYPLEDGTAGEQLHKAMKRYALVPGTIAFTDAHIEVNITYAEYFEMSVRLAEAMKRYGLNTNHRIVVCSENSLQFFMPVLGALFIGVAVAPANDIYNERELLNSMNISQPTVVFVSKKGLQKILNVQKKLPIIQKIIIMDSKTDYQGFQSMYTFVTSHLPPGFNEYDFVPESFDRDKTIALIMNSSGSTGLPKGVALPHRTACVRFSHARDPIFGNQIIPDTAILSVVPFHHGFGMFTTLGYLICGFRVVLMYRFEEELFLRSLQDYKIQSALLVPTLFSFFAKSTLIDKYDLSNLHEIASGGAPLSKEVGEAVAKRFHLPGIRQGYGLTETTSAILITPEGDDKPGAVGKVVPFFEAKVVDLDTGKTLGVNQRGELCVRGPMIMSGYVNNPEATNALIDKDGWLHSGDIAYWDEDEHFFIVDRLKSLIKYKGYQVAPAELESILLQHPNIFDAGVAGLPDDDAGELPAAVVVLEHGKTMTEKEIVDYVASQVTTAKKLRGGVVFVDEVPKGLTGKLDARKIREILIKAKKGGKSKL"}, "source": "PubChem BioAssay AID588342", "about": "(National Center for Advancing Translational Sciences (NCATS), 2011)", "note": "Where “and” joins values, the source holds several entries; their conditions need not be identical. Equal entries are not always repeated. The entries are a selection whose mix differs from that of the whole data set. Some results for these compounds are left out of this collection, so the calls shown say nothing about other tests. Inconclusive results are not listed. Calls of active or inactive are those of the source. The call rests on the fitted dose curve; in most records, active means well fitted inhibition curve with a large enough effect; inconclusive means small, poorly fitted or top-dose-only effect; inactive means flat fitted curve, though single readings scatter."}
{"biological_target": "Luciferin 4-monooxygenase (Photinus pyralis) (UniProt P08659)", "experiment": "qHTS profiling assay for firefly luciferase inhibitor/activator using purifed enzyme and Km concentrations of substrates (counterscreen for miR-21 project);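 further: plate controls were vehicle for no effect and reference inhibitor for full effect; nearly all actives have a fitted effect of over 55% in size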", "conditions": "purified FLuc, luminescence inhibition; at 57.5 µM (top of the series)"}
{"smiles": "Cc1cccc(C(=O)NCC2(N(C)C)CCCCC2)c1", "activity change, negative = inhibition": "inactive: 0.585%"}
{"smiles": "COc1cc(C(=O)NCC2(N(C)C)CCCCC2)cc(OC)c1OC", "activity change, negative = inhibition": "inactive: -0.19%"}
{"smiles": "COc1ccc(Br)c(C(=O)NCC2(N3CCCCC3)CCCCC2)c1", "activity change, negative = inhibition": "inactive: 1.25%"}
{"smiles": "CN(C)c1cccc(C(=O)NCC2(N(C)C)CCCCC2)c1", "activity change, negative = inhibition": "inactive: 1.88%"}
{"smiles": "CC(C)Oc1ccc(C(=O)NCC2(N(C)C)CCCCC2)cc1", "activity change, negative = inhibition": "inactive: 1.2% and inactive: 0.138%"}
{"smiles": "O=C(OC1CN2CCC1CC2)C(CO)(c1ccccc1)c1ccccc1", "note": "(centres undefined)", "activity change, negative = inhibition": "inactive: -1.03%"}
{"smiles": "COc1cccc(C(=O)NCC2(N3CCOCC3)CCCCC2)c1", "activity change, negative = inhibition": "inactive: -0.923%"}
{"smiles": "CC(C)COc1ccc(C(=O)NCC2(N(C)C)CCCCC2)cc1", "activity change, negative = inhibition": "inactive: -0.37%"}
{"smiles": "COc1ccc(C(=O)NCC2(N(C)C)CCCCC2)cc1Cl", "activity change, negative = inhibition": "inactive: -7.1%"}
{"smiles": "COc1cccc(C(=O)NCC2(N3CCCCC3)CCCCC2)c1", "activity change, negative = inhibition": "inactive: -0.0309%"}
{"smiles": "COc1ccc(Cl)cc1C(=O)NCC1(N(C)C)CCCCC1", "activity change, negative = inhibition": "inactive: -9.08%"}
{"smiles": "O=C(NCC1(N2CCCCC2)CCCCC1)c1cccc(Cl)c1", "activity change, negative = inhibition": "inactive: 1.67%"}
{"smiles": "CN(C)C1(CNC(=O)c2ccc(Br)cc2)CCCCC1", "activity change, negative = inhibition": "inactive: 4.15%"}
{"smiles": "COc1cc(C(=O)NCC2(N(C)C)CCCCC2)c([N+](=O)[O-])cc1OC", "activity change, negative = inhibition": "inactive: 1.16%"}
{"smiles": "C=CCN1CCN(CCOC(=O)C(O)(c2ccccc2)c2ccccc2)CC1", "activity change, negative = inhibition": "inactive: -3.9%"}
{"smiles": "O=C(NCC1(N2CCCCC2)CCCCC1)c1cc(F)c(F)cc1Cl", "activity change, negative = inhibition": "inactive: 1.46%"}
{"smiles": "CCN1CCCC(OC(=O)C2(O)c3ccccc3C=Cc3ccccc32)C1", "note": "(centres undefined)", "activity change, negative = inhibition": "inactive: -2.55%"}
{"smiles": "Cc1cc(C(=O)NCC2(N3CCCCC3)CCCCC2)ccc1[N+](=O)[O-]", "activity change, negative = inhibition": "inactive: -1.29%"}
{"smiles": "O=C(NCC1(N2CCCCC2)CCCCC1)c1cccc(Br)c1", "activity change, negative = inhibition": "inactive: 0.162%"}
{"smiles": "COc1ccc(C(=O)NCC2(N(C)C)CCCCC2)cc1", "activity change, negative = inhibition": "inactive: -0.571%"}
{"smiles": "CCOc1cccc(C(=O)NCC2(N(C)C)CCCCC2)c1", "activity change, negative = inhibition": "inactive: -2.46%"}
{"smiles": "Cc1ccccc1C(=O)NCC1(N2CCCCC2)CCCCC1", "activity change, negative = inhibition": "inactive: -0.363%"}
{"smiles": "CN(C)C1(CNC(=O)c2ccccc2[N+](=O)[O-])CCCCC1", "activity change, negative = inhibition": "inactive: 0.629%"}
{"smiles": "CN(C)c1ccc(C(=O)NCC2(N(C)C)CCCCC2)cc1", "activity change, negative = inhibition": "inactive: -0.984%"}
{"smiles": "CN(C)C1CCCC1OC(=O)C(O)(c1ccccc1)c1ccccc1", "note": "(centres undefined)", "activity change, negative = inhibition": "inactive: 1.03%"}
{"smiles": "CCCCOc1ccccc1C(=O)NCC1(N(C)C)CCCCC1", "activity change, negative = inhibition": "inactive: -5.93%"}
{"smiles": "CC(C)N1C(=O)CC2(CCN(CCOC(=O)C(O)(c3ccccc3)c3ccccc3)CC2)C1=O", "activity change, negative = inhibition": "inactive: -1.41%"}
{"smiles": "CCN(CC)CC(C)C(C)OC(=O)C(O)(c1ccccc1)c1ccccc1", "note": "(centres undefined)", "activity change, negative = inhibition": "inactive: 1.58%"}
{"smiles": "CN(C)C1(CNC(=O)c2cccc(Cl)c2)CCCCC1", "activity change, negative = inhibition": "inactive: -1.01%"}
{"smiles": "COc1cc(SC)ccc1C(=O)NCC1(N(C)C)CCCCC1", "activity change, negative = inhibition": "inactive: -4.63%"}
{"smiles": "CN(C)C1(CNC(=O)c2ccccc2F)CCCCC1", "activity change, negative = inhibition": "inactive: -2.25%"}
{"smiles": "Cc1ccc(C(=O)NCC2(N3CCCCC3)CCCCC2)cc1", "activity change, negative = inhibition": "inactive: 0.524%"}
{"smiles": "O=C(NCC1(N2CCCCC2)CCCCC1)c1cc([N+](=O)[O-])ccc1Cl", "activity change, negative = inhibition": "inactive: 0.79%"}
{"smiles": "CN1[C@@H]2CC[C@H]1CC(OC(=O)C(O)(c1ccccc1)c1ccccc1)C2", "note": "(some centres undefined)", "activity change, negative = inhibition": "inactive: 1.4%"}
